Data taken from US9695160B2, “Piperazine derivatives for treating disorders” (THE UNIVERSITY OF NOTTINGHAM, priority 2014, dated 2017).

Protein sequences, listed by entry. Tags and fused reporters are not part of them.
UniProt Q96SB4, whole entry: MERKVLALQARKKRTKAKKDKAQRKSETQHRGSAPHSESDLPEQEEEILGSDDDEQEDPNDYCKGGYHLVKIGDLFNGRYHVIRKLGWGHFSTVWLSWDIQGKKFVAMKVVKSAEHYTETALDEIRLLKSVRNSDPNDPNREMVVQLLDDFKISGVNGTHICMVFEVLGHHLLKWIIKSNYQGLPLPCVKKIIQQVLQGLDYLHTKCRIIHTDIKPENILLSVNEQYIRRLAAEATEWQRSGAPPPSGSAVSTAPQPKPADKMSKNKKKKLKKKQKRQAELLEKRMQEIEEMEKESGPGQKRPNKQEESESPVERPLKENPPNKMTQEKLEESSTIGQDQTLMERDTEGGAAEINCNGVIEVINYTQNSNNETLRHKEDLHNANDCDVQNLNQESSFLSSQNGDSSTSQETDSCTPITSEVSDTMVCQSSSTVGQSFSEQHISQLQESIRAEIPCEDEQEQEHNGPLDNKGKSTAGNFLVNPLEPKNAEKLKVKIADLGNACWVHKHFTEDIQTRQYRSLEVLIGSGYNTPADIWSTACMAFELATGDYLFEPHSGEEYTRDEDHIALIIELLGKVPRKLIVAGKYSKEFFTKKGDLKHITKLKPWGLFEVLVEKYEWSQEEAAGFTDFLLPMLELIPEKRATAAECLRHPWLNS

Biological target: SRPK1 (Homo sapiens (Human), UniProt Q96SB4)
Assay: In vitro kinase assay (Kinase-Glo), SRPK1 inhibition
Type: biochemical
Conditions: Table 2, SRPK1 inhibition assay

O=C(Nc1cc(C(F)(F)F)ccc1N1CCN(Cc2ccccc2)CC1)c1ccc(-c2ccc3[nH]ccc3c2)o1 [Compound 24]
IC50: 3.51 µM
